{"source": "patent US10869922B2", "about": "(priority 2016, dated 2020)", "test_system": "OVA", "assay": "Serum antibody titer by self-coated ELISA, OVA model", "assay_type": "in vivo, mice", "conditions": "serum 7th day after last immunization, FIG. 3"}
{"substance": "Ovalbumin", "values": [{"measurement": "production of antibody", "result": "could hardly produce antibodies"}]}
